The values that follow come from PubChem BioAssay AID2435 (The Scripps Research Institute Molecular Screening Center, 2010).

By UniProt entry, the sequences of proteins in these tests, tags left out. Where a name states a change or a piece, a line headed by the entry shows the natural chain unless it says otherwise.
UniProt P30559: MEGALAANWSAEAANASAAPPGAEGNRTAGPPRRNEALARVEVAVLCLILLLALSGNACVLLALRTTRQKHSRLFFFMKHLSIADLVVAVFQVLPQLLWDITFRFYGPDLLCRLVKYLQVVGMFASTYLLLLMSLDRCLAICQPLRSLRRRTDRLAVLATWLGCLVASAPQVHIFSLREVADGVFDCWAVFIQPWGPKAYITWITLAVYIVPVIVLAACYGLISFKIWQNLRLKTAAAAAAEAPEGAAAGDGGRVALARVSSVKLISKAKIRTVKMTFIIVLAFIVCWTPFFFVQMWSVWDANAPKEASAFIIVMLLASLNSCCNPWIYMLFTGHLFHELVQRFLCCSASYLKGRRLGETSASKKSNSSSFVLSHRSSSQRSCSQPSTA

Molecules are shown by their SMILES. The entries are a selection whose mix differs from that of the whole data set. The source made the active and inactive calls.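 Rule for the calls: active = activation above the mean of all tested compounds plus 3 SD, cutoff set per screening run (cut at about 20% in these data); inactive = the rest.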

This assay concerns the target Oxytocin receptor (Homo sapiens) (UniProt P30559). The assay can be described thus: oxytocin receptor activation by calcium flux – fluorescence, CHO-OTR cells, Fluo-8 calcium, primary screen (AID 2435).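 Note: peak over basal fluorescence ratio from a 100 s FLIPR kinetic read.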 Particulars: Fluo-8 calcium fluorescence, at 3 µM, stronger effect = higher value, normalized: DMSO 0%, oxytocin 100%. (In general: Calcium assays in cells follow changes in intracellular calcium, usually with a dye or a luminescent sensor.)
Consider `C[N+]1=C2C=CC=CC=C2SC12C([N+](=O)[O-])=CC([N+](=O)[O-])=C[C-]2[N+](=O)[O-]` (stereo not given), for which the activation is inactive: 1.03%.
Then `Nc1ccc([As](=O)(O)c2ccc(N)cc2)cc1`, with inactive: 0.01%.
Then `CC1CCN(C(=O)Oc2c(Cl)cc(Cl)c3cccnc23)CC1`, with inactive: -2.35%; and `CN(C)C(=O)OCCc1n(C)cc[n+]1C`, with inactive: -0.09%.
With `CC(C)=N/N=C(\N)N[N+](=O)[O-]` the figure was inactive: 0.96%; with `O=C(Nc1cc([As](=O)(O)O)ccc1O)c1ccccc1`, inactive: 0.77%.
Regarding `O=[N+]([O-])c1ncn(CCn2ncnc2[N+](=O)[O-])n1`, the activation is inactive: 0.8%.
Then `CC(C)(C)C(=O)NC(Sc1ccncn1)C(Cl)(Cl)Cl` (stereo not given), with inactive: 0.9%; and `O=[N+]([O-])c1cccc(NC2=NCC(CBr)S2)c1` (stereo not given), with inactive: -0.16%; and `O=P(Nc1ccccn1)(c1ccc(Br)cc1)c1ccc(Br)cc1`, with inactive: -0.25%.
Then `CN(C)C1(CNC(=O)c2ccc(Cl)c(S(N)(=O)=O)c2)CCCCC1`, with inactive: 1.04%; and `C[C@H]1OP(=O)(Oc2ccccc2)[C@H](O)[C@H](O)[C@H]1N=[N+]=[N-]` (stereo not given in full), with inactive: 0.65%.
Then `O=P(Nc1nc2ccccc2s1)(c1ccccc1)c1ccccc1`, with inactive: -0.43%.
For the molecule `O=[As](O)(c1ccccc1)c1ccc(O)cc1`, the activation was inactive: 0.13%.
Then `O=[N+]([O-])c1ccc(O)c(/C=N/Nc2ccc([N+](=O)[O-])cc2[N+](=O)[O-])c1`, with inactive: 8.45%; and `O=[N+]([O-])c1ncn(CCn2cnc([N+](=O)[O-])n2)n1`, with inactive: -0.19%; and `CC(=O)NC(SC(=S)N(C)C)C(Cl)(Cl)Cl` (stereo not given), with inactive: 1.49%.
With `O=C(OC1CN2CCC1CC2)c1cccc(Cl)c1` (stereo not given) the figure was inactive: 1.76%; with `Nc1ccc([As](=O)(O)c2ccc([N+](=O)[O-])cc2)cc1`, inactive: -0.07%; with `C(Cc1nn[nH]n1)Cc1nn[nH]n1`, inactive: 0.59%.
In the case of `CC(C)C(=O)NC(Sc1ccccc1)C(Cl)(Cl)Cl` (stereo not given), the activation was inactive: -1.57%.
Then `O=P(Nc1nccs1)(c1ccccc1)c1ccccc1`, with inactive: 0.37%; and `c1nnnn1CCn1cnnn1`, with inactive: 0.96%; and `CCOc1ccc(C2=NCC(CBr)S2)cc1` (stereo not given), with inactive: 0.43%.
With `O=P1(Nc2nc3ccc(Cl)cc3s2)COc2ccccc2O1` (stereo not given) the figure was inactive: 0.26%.
With `CC(C)(C)C(=O)NC(Sc1ccccc1)C(Cl)(Cl)Cl` (stereo not given) the figure was inactive: -2.95%.
As for `C[C@@H]1C=CCP(=O)(Oc2ccccc2)O1` (stereo not given in full), the activation was inactive: -0.14%.
With `C[C@H]1OP(=O)(Oc2ccccc2)C[C@@H]2O[C@@H]21` (stereo not given in full) the figure was inactive: 0.28%; with `Cc1ccccc1CN(C)C(=O)COC(=O)C(O)(c1ccccc1)c1ccccc1`, inactive: 1.03%.
With `CC(=O)c1ccc(N2CC2c2ccncc2)cc1` (stereo not given) the figure was inactive: 1.32%.
Consider `CC(=O)Nc1ccc(Oc2c([N+](=O)[O-])cc([N+](=O)[O-])cc2[N+](=O)[O-])cc1`, for which the activation is inactive: -0.4%.
With `CC(=O)Nc1ccc([As](=O)(O)O)c(O)c1` the figure was inactive: 0.52%; with `CCOC(=O)NC(Sc1ccccc1)C(Cl)(Cl)Cl` (stereo not given), inactive: -2.31%.
Then `Cc1ccc(NP(=O)(Oc2cccc(C)c2)Oc2cccc(C)c2)nc1`, with inactive: -0.28%; and `c1ccc(-c2nn[nH]n2)c(-c2nn[nH]n2)c1`, with inactive: 1.35%.
With `CCNC(=S)/N=C(\N)N[N+](=O)[O-]` the figure was inactive: 0.8%; with `O=C(NC1CCS(=O)(=O)C1)NP(=S)(Oc1ccccc1)Oc1ccccc1` (stereo not given), inactive: 0.28%.
For the molecule `CCC(=O)N1C2C3N(C(=O)CC)C1C1N(C(=O)CC)C(C(N1C(=O)CC)N3C(=O)CC)N2C(=O)CC`, the activation was inactive: -0.17%.
Then `O=C(OC1CN2CCC1CC2)c1ccccc1` (stereo not given), with inactive: 0.65%.
Then `Cc1ccc(OP(=O)(Nc2ccccn2)Oc2ccc(C)cc2)cc1`, with inactive: 1.17%; and `CC(=O)NC(SC(=S)N(CC(C)C)CC(C)C)C(Cl)(Cl)Cl` (stereo not given), with inactive: -0.08%; and `COC(=O)c1cc2c(s1)N=C(c1ccccc1)N(C)P2(=O)N1CCOCC1` (stereo not given), with inactive: -0.96%.
Then `CN(C)C(=O)Oc1noc2ccccc12`, with inactive: 0.3%; and `Cc1ccccc1OP(=O)(Nc1ccccn1)Oc1ccccc1C`, with inactive: 0.02%; and `CC(NC(=O)COC(=O)C(O)(c1ccccc1)c1ccccc1)c1ccccc1` (stereo not given), with inactive: 2.71%.
